Results from US20120184583A1, “MODULATORS OF ATP-BINDING CASSETTE TRANSPORTERS” (VERTEX PHARMACEUTICALS INCORPORATED, priority 2003, published 2012).

The chains behind the UniProt entries cited, without tags or fusion partners. Where a name states a change or a piece, a line headed by the entry shows the natural chain unless it says otherwise. A line that says so, or that is headed by a name, gives the form on record, which may keep a tag or linker.
UniProt P13569, with tags, fused parts or gaps DEL508-508: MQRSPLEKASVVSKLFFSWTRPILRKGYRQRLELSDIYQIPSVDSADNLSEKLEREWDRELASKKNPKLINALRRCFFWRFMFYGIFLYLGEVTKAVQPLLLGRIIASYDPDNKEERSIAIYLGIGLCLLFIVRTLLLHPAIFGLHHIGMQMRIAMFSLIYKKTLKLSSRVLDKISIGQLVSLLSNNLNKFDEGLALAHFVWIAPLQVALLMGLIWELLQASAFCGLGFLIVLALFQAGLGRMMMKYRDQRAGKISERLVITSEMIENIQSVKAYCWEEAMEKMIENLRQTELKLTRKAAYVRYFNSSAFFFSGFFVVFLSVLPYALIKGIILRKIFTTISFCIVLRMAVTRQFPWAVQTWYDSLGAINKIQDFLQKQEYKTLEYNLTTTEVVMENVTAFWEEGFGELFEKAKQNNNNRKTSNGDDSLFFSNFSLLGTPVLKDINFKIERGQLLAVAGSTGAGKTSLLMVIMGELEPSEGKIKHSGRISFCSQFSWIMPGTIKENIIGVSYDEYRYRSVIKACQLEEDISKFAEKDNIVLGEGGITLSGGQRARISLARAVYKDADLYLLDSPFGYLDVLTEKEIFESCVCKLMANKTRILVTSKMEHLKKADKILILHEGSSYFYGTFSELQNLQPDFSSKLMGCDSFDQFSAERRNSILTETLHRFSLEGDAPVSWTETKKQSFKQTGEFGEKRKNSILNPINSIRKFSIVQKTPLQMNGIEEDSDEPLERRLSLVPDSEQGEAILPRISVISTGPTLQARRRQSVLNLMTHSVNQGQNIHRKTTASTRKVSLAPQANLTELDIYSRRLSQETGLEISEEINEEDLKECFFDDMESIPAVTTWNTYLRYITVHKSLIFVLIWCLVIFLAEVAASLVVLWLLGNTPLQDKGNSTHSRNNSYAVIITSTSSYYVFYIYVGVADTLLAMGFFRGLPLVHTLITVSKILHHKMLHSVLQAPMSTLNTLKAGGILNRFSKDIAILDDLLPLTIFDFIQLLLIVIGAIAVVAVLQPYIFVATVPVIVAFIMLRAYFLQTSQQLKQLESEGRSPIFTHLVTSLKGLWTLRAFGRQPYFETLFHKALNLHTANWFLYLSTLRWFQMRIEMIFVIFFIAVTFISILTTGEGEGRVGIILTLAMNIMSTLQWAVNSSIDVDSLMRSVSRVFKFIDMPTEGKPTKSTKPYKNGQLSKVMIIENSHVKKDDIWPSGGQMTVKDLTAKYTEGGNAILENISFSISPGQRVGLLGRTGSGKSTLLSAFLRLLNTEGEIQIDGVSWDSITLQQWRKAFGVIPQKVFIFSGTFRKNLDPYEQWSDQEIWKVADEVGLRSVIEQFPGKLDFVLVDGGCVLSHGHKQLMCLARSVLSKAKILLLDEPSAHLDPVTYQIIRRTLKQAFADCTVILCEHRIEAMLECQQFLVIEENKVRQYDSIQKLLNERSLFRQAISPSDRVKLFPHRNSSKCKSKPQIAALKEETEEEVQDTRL

Assays:
[1] = target: T1, ΔF508-CFTR expressed in FRT epithelial cells (Homo sapiens, UniProt P13569, DEL508-508); assay: Ussing chamber assay, short-circuit current in FRT epithelia; format: cell-based; conditions: in the presence of 10 μM forskolin; read-out: EC50 of dose-dependent increase in ISC
T1 construct: expressed in transfected cells; host or cells: Fisher rat epithelial (FRT) cells, vector-infected

[2] = target: T2, ΔF508-CFTR stably expressed in NIH3T3 cells (Homo sapiens, UniProt P13569, DEL508-508); assay: Membrane potential optical (FRET/VIPR) assay for ΔF508-CFTR potentiation; format: cell-based; conditions: potentiation of forskolin-induced response, n=35
T2 construct: expressed in transfected cells
From the text: Membrane potential optical methods for assaying ΔF508-CFTR potentiation properties of compounds.
These voltage sensitive assays are based on the change in fluorescence resonant energy transfer (FRET) between the membrane-soluble, voltage-sensitive dye, DiSBAC2(3), and a fluorescent phospholipid, CC2-DMPE, which is attached to the outer leaflet of the plasma membrane and acts as a FRET donor. Changes in membrane potential (Vm) cause the negatively charged DiSBAC2(3) to redistribute across the plasma membrane and the amount of energy transfer from CC2-DMPE changes accordingly. The changes in fluorescence emission were monitored using VIPR™ II, which is an integrated liquid handler and fluorescent detector designed to conduct cell-based screens in 96- or 384-well microtiter plates.
To identify potentiators of ΔF508-CFTR, a double-addition HTS assay format was developed (FIG. 1A). During the first addition, a Cl^−-free medium with or without test compound was added to each well. After 22 sec, a second addition of Cl^−-free medium containing 2-10 μM forskolin was added to activate ΔF508-CFTR. The extracellular Cl^− concentration following both additions was 28 mM, which promoted Cl^− efflux in response to ΔF508-CFTR activation and the resulting membrane depolarization was optically monitored using the FRET-based voltage-sensor dyes. The double-addition format has several advantages. […]

EC50 [1]: 21.2 ± 0.49 µM | EC50 [2]: 19.2 ± 1.9 µM
Structure (SMILES): O=c1c(-c2ccc(O)cc2)coc2cc(O)cc(O)c12 [genistein, reference compound]
